Laboratory results published in ChEMBL document CHEMBL4342404, “Anti-cholinesterase hybrids as multi-target-directed ligands against Alzheimer's disease (1998-2018)” (Bioorg Med Chem, 2019).

Amino acid sequences for entries named in this document (tags omitted). A change or cut given only in a name is not applied to a line headed by its entry.
UniProt Q9Y5N1: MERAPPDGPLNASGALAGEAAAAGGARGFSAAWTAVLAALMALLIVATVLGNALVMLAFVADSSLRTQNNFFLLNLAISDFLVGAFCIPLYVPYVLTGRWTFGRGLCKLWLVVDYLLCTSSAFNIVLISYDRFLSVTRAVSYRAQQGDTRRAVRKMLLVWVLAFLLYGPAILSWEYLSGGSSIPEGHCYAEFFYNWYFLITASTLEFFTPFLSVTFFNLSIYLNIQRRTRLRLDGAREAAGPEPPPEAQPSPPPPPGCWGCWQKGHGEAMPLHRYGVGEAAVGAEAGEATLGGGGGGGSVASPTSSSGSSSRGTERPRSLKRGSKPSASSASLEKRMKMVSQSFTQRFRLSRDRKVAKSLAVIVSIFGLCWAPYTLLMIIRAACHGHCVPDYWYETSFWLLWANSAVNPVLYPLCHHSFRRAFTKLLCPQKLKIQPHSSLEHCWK

Biological target: Histamine H3 receptor (Homo sapiens, UniProt Q9Y5N1)
Test: biochemical

`O=C(c1ccc(OCCCc2cnc[nH]2)cc1)C1CC1` [CIPROXIFAN] gave a Ki of 46 to 180 nM.
